Test results: ChEMBL document CHEMBL1125868, “Antidopaminergic effects of the stereoisomers of N-[(1-alkyl-2- pyrrolidinyl)methyl]-5-sulfamoylbenzamides and -2,3-dihydrobenzofuran-7-carboxamides” (J Med Chem, 1991)

Protein sequences, listed by entry. Tags and fused reporters are not part of them.
UniProt P61169, whole entry: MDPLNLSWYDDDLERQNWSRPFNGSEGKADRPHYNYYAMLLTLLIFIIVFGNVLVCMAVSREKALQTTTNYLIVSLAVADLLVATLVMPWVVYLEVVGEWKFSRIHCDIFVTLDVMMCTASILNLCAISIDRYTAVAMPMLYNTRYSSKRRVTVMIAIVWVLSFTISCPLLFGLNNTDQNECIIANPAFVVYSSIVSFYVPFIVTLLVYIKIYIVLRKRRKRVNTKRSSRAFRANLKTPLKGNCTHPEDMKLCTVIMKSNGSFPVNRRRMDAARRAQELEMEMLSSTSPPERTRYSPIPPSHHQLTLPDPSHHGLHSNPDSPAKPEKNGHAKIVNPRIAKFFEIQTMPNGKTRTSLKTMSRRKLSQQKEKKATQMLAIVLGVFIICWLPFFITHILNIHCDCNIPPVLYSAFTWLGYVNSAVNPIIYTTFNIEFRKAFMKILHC

Target: D(2) dopamine receptor (Rattus norvegicus, UniProt P61169)
Test: Binding affinity towards dopamine receptor D2 using as [3H]-spiperone radioligand.
Summary of the method: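 Rat striatal membranes washed in 50 mM Tris-HCl pH 7.7, then resuspended in 50 mM Tris-HCl pH 7.1 with NaCl, KCl, CaCl2, MgCl2, ascorbate and 10 μM pargyline, preincubated 10 min at 37 °C. Incubated with [3H]spiperone (0.2 nM final) for 20 min at 37 °C, then filtered. IC50 read from concentration-inhibition curves.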

- Ki: 23 nM
Structure (SMILES): CCCCN1CCC[C@@H]1CNC(=O)c1cc(S(N)(=O)=O)cc2c1O[C@H](C)C2
